Earlier results in patent US20170340557A1.
Only a part of the results on these compounds is given; other tests are left out.

Settings: oral administration

Compound: CCC(=O)N(c1ccccc1)C1CCN(CCc2ccccc2)CC1
- Share of orally administered fentanyl not absorbed (first pass effect): ≥ 50%
